# Test results from patent US20140294763A1, “PEPTIDOMIMETIC PROTEASE INHIBITORS” (priority 2000, published 2014).
# Tested on: replicon cells
# Assay: XTT metabolic assay to determine replicon cell viability
# Conditions: concentrations employed in the Replicon Assay
# Description: Inflamation Research. […] It is assumed that the level of GAPDH mRNA, which is a constitutively expressed housekeeping gene, is the same in all viable cells. […] Thus, it is postulated, as done by others using TaqMan® technology to determine the levels of particular mRNAs in human cells, that GAPDH mRNA levels are proportional to viable cell numbers (VCN) in any given sample, with the relationship of VCN=2^̂(40−CtGAPDH mRNA). The VCN is computed for each of the Replicon Assay sample wells, and then we divide the HCV Replicon RNA copy number for a specific well by the VCN for that well. Once computed, this ratio is used instead of the HCV copy number to compute inhibition (“Avg. Inh using ratio”; FIG. 14A). […] In the Replicon Assay, it is assumed that the measured inhibition of HCV RNA replicon accumulation is the sum of the actual inhibition of HCV RNA replicon accumulation and the apparent inhibition of HCV RNA replicon accumulation due to cytoxicity. […] Thus, the true anti-HCV activity of a compound in the Replicon Assay corrected for general cytotoxicity can be estimated by dividing the number of HCV replicon RNA molecules measured in each sample by the VCN, thus normalizing to the number of viable cells in each sample. […] In FIG. 14A, “Avg.
structure (smiles),measurement,value
"NC(=O)c1ncn([C@@H]2O[C@H](CO)[C@@H](O)[C@H]2O)n1 [Ribavirin, reference compound]",cytotoxicity (XTT metabolic assay),significant Ribavirin-induced cytotoxicity
